{
  "source": "PubChem BioAssay AID1016",
  "about": "(Sanford-Burnham Center for Chemical Genomics, 2008)",
  "note": "This is a selection; strong and weak results do not stand in their true shares. Activity calls are given as the source filed them.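 Rule for the calls: active = activation factor of 2 or more at 20 µM, a signal rise over negative controls twice the positive control's; inactive = the rest.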",
  "data": [
    {"test_system": "alkaline phosphatase, intestinal [Bos taurus]", "assay": "IAP enzyme activity enhancers – biochemical, bovine IAP, CDP-star luminescence, primary screen (AID 1016)", "conditions": "purified bovine IAP, 30 min, at 20 µM, active compounds read high, fold of DMSO-control signal, blank-subtracted", "values": [
      {"smiles": "O=C(COc1ccccc1)OC1CN2CCC1CC2", "note": "(stereo not given)", "activation factor": "inactive: 0.9"},
      {"smiles": "O=P(Nc1ccccn1)(c1cccc2ccccc12)c1cccc2ccccc12", "activation factor": "inactive: 0.9"},
      {"smiles": "Cc1cc(SC(NC=O)C(Cl)(Cl)Cl)ncn1", "note": "(stereo not given)", "activation factor": "inactive: 1.3"},
      {"smiles": "ClCCSc1nnc(-c2cccnc2)o1", "activation factor": "inactive: 1.1"},
      {"smiles": "Cc1ccc(NCCc2c([N+](=O)[O-])cc([N+](=O)[O-])cc2[N+](=O)[O-])cc1", "activation factor": "inactive: 0.9"},
      {"smiles": "COc1cc(C2NCCC3(OCCO3)C2(C)C)cc(OC)c1OC", "note": "(stereo not given)", "activation factor": "inactive: 0.7"},
      {"smiles": "COc1cc(C(=O)NCC2(N3CCOCC3)CCCCC2)cc(Cl)c1OC(C)C", "activation factor": "inactive: 1.2"},
      {"smiles": "Cc1cccc(OCC(=O)OC2CN3CCC2CC3)c1", "note": "(stereo not given)", "activation factor": "inactive: 0.9"},
      {"smiles": "CCOP1(=S)c2c(C)nn(CCC#N)c2N=C(c2ccc(F)cc2)N1C", "note": "(stereo not given)", "activation factor": "inactive: 1.1"},
      {"smiles": "O=[N+]([O-])c1ccc2c(c1)nnn2O", "activation factor": "inactive: 0.9"},
      {"smiles": "O=P(Nc1nccs1)(c1ccccc1)c1nc2ccccc2s1", "note": "(stereo not given)", "activation factor": "inactive: 1.1"},
      {"smiles": "CCOP1(=S)c2c(C)nn(CCC#N)c2N=C(c2ccccc2F)N1C", "note": "(stereo not given)", "activation factor": "inactive: 0.9"},
      {"smiles": "O=P1(Nc2ccc(Br)cn2)COc2ccccc2OC1", "activation factor": "inactive: 0.8"},
      {"smiles": "Cc1ccc(OCC(=O)OC2CN3CCC2CC3)cc1", "note": "(stereo not given)", "activation factor": "inactive: 0.9"},
      {"smiles": "CC1CCC(C(C)C)C(OP(=O)(Nc2ccccn2)c2ccccc2)C1", "note": "(stereo not given)", "activation factor": "inactive: 1.3"},
      {"smiles": "CC(C)/C=N\\N=C(\\N)N[N+](=O)[O-]", "activation factor": "inactive: 1.1"},
      {"smiles": "CN(C(=O)Cc1ccc(Cl)c(Cl)c1)[C@@H]1CCCC[C@H]1N1CCCC1", "activation factor": "inactive: 1.1"},
      {"smiles": "Clc1n[nH]nc1-c1nn[nH][15n]1", "activation factor": "inactive: 0.9"},
      {"smiles": "c1nnnn1CCn1cnnn1", "activation factor": "inactive: 0.8"},
      {"smiles": "C(Cc1nn[nH]n1)Cc1nn[nH]n1", "activation factor": "inactive: 0.9"},
      {"smiles": "O=P(Nc1ccccn1)(c1ccc(Br)cc1)c1ccc(Br)cc1", "activation factor": "inactive: 1.1"},
      {"smiles": "COC(=O)c1cc2c(s1)N=C(c1ccccc1)N(C)P2(=O)N1CCOCC1", "note": "(stereo not given)", "activation factor": "inactive: 1.1"},
      {"smiles": "O=c1c2cc([N+](=O)[O-])ccc2[nH]c2c([N+](=O)[O-])cc([N+](=O)[O-])cc12", "activation factor": "inactive: 0.8"},
      {"smiles": "CCOC(=O)NC(Sc1ccccc1)C(Cl)(Cl)Cl", "note": "(stereo not given)", "activation factor": "inactive: 0.8"},
      {"smiles": "c1ccc(-c2nn[nH]n2)c(-c2nn[nH]n2)c1", "activation factor": "inactive: 1.1"},
      {"smiles": "CCNC(=S)/N=C(\\N)N[N+](=O)[O-]", "activation factor": "inactive: 1.1"},
      {"smiles": "CCOc1ccc(C2=NCC(CBr)S2)cc1", "note": "(stereo not given)", "activation factor": "inactive: 1.1"},
      {"smiles": "CC(C)(C)C(=O)NC(Sc1ccccc1)C(Cl)(Cl)Cl", "note": "(stereo not given)", "activation factor": "inactive: 1.1"},
      {"smiles": "Cc1c2non([O-])c-2c(C)[n+](=O)[n+]1[O-]", "activation factor": "inactive: 1.1"},
      {"smiles": "Oc1ccccc1CNc1ccccn1", "activation factor": "inactive: 0.8"},
      {"smiles": "CC(C)CC(=O)NC(Sc1ccc(Cl)cc1)C(Cl)(Cl)Cl", "note": "(stereo not given)", "activation factor": "inactive: 1.1"},
      {"smiles": "NC(=O)c1cc([N+](=O)[O-])cc([N+](=O)[O-])c1N", "activation factor": "inactive: 1.1"},
      {"smiles": "Clc1ccc(Cl)c(NC2=NCC(CBr)S2)c1", "note": "(stereo not given)", "activation factor": "inactive: 1.2"},
      {"smiles": "COc1ccccc1OP(=O)(Nc1ccc(C)cn1)Oc1ccccc1OC", "activation factor": "inactive: 0.9"},
      {"smiles": "CCN(N=Nc1nonc1N)c1nonc1N", "activation factor": "inactive: 0.8"},
      {"smiles": "CCOP(=O)(Nc1ccccc1)OCC", "activation factor": "inactive: 0.9"},
      {"smiles": "COc1ccc(C2=NCC(CBr)S2)cc1", "note": "(stereo not given)", "activation factor": "inactive: 0.8"},
      {"smiles": "CCc1nc2c(n1)c1c(non1O)c1c2no[n+]1[O-]", "activation factor": "inactive: 0.9"},
      {"smiles": "O=[N+]([O-])c1cc([N+](=O)[O-])c(CCNc2ccccc2)c([N+](=O)[O-])c1", "activation factor": "inactive: 0.8"},
      {"smiles": "O=[N+]([O-])c1cccc2n[nH]nc12", "activation factor": "inactive: 0.8"}
    ]}
  ]
}
